Laboratory results from publication PMC5995969, “Structural basis for the regulation of human 5,10-methylenetetrahydrofolate reductase by phosphorylation and S-adenosylmethionine inhibition” (Nature Communications, 2018).

By UniProt entry, the sequences of proteins in these tests, tags left out. Residues count along the entry.
UniProt P46151, 1-301: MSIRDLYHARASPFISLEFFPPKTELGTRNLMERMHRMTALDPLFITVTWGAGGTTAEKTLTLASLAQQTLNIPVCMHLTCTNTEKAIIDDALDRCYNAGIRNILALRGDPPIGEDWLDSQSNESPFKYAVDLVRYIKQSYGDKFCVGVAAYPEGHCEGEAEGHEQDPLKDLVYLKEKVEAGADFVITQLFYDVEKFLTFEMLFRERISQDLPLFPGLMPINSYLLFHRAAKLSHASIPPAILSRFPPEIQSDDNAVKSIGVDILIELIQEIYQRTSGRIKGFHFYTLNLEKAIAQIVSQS

Molecular target: MET12 (ScMET12) (Saccharomyces cerevisiae, UniProt P46151)

## Cc1cc2nc3c(=O)[nH]c(=O)nc-3n(C[C@H](O)[C@H](O)[C@H](O)COP(=O)(O)OP(=O)(O)OC[C@H]3O[C@@H](n4cnc5c(N)ncnc54)[C@H](O)[C@@H]3O)c2cc1C [FAD]
  1.56 Å crystal structure: blocked by a crystal packing interaction from a nearby symmetry mate, making π–π stacking interactions with the FAD ligand
